Bioassay records from PubChem.
ClpP mod = qHTS Assay for Activators of ClpP; ATP-dependent Clp protease proteolytic subunit (Bacillus subtilis (strain 168)), P80244; purified B. subtilis ClpP, FRET peptide cleavage, 20 min; Potency, µM (top dose mostly 57.5 µM), for inactives: at the highest dose activity change, negative = active; actives 1.9% (n = 340,000); AID 651965, 2013; active means well fitted falling curve with a large enough effect; inconclusive means small, poorly fitted or top-dose-only effect; inactive means no such curve, though single readings can be large or run the other way; further: potency means the concentration at half of the fitted maximal effect; the source files actives as falling curves though it sought activators and does not explain the sign; nearly all actives have a fitted effect of over 65% in size
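FRET quenching reversal measured ClpP activation: 10 microg/mL B. subtilis ClpP at pH 8 with the FRET-FV decapeptide, read at 430 nm after 320 nm excitation. The 20-min minus 0-min signal was scaled between DMSO/no-enzyme wells and ADEP (5.8 microM final).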
p53 reactivation = restores transcriptional activity of mutant p53; H1299 p53-A138V BP100-luciferase reporter, luminescence, 24 h; Potency, µM (series often up to 92.2 µM), inactives show top-dose activity change, positive = activation, hits mostly activators; AID 504706; actives 0.063% (n = 320,000); further: potency means the concentration at half of the fitted maximal effect; % of control where 0% means no effect; nearly all actives have a fitted effect of over 45% in size
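H1299 (p53-null), stable ts p53-A138V + BP100-Luc; 1000 cells/well, Opti-MEM/10% FBS; cpd 4 pt, 1:5; 24 h, 37 deg C, 5% CO2; detection reagent 10 min RT; luminescence.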
miR-21 FLuc = raises the signal of a miR-21 reporter | AID 2288 | 340,000 tested, under 10 active | Potency, µM (series often up to 38.3 µM), without a hit: at the highest dose reporter change, positive = more light | HeLa miR-21 FLuc reporter, luciferase, 48 h; active = well fitted rising curve with a large enough effect; inconclusive = small, poorly fitted or top-dose-only effect; inactive = no such curve, though single readings can be large or run the other way;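 further: % of control where 0% means no effect; miR-21 action dims this reporter so a rising signal means less miR-21 action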
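HeLa cells stably expressing CMV-driven firefly luciferase with a downstream miR-21 binding sequence, endogenously expressing miR-21, were treated with titrations (up to about 40uM final) for 48 hours at 37 degree Celsius. Luciferase luminescence was read after lysis.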
Nrf2 ARE act = activates Nrf2 signaling; AREc32 ARE-luciferase reporter (MCF7-derived line), luminescence, 24 h; Potency, µM (titrated, usually from 46.1 µM), for the others: top-dose activation, most hits filed as activators; actives 0.31% (n = 410,000); AID 624171; further: potency means the concentration at half of the fitted maximal effect; % of control where 0% means no effect; nearly all actives have a fitted effect of over 65% in size
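ARE-driven firefly luciferase activity in AREc32 cells measured after a 24 hr compound exposure at 37 deg C, using Steady-Glo reagent and a 30 min room-temperature hold.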
A549 tox = kills or reduces viability of A549 cells in Nrf2 counter-screen. A549 ARE-Fluc cells, CellTiter-Fluor viability, 18-24 h. Potency, µM (top dose mostly 46 µM), without a hit: top-dose activity change, negative = cytotoxicity, hits mostly inhibitors. actives 0.16% (n = 390,000). AID 504648; further: potency means the concentration at half of the fitted maximal effect; on the % scale 0 is the no-effect control and ±100 the full control effect
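Cytotoxicity counterscreen: CellTiter-Fluor fluorescence was measured in A549 ARE_Fluc cells after 18-24 h of compound exposure in a concentration series. The subsequent BugLite luminescent read reports ARE-luciferase activity.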
Nrf2 block = Nrf2 pathway inhibition | A549 ARE-Fluc reporter, luciferase luminescence, 18-24 h | Potency, µM (series often up to 46 µM), without a hit: top-dose activity change, negative = inhibition, most hits filed as inhibitors | actives 2.1% (n = 360,000) | AID 504444; further: potency means the concentration at half of the fitted maximal effect; on the % scale 0 is the no-effect control and ±100 the full control effect; nearly all actives have a fitted effect of over 60% in size
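Two sequential reads on A549 ARE_Fluc cells exposed to compound for 18-24 h: a CellTiter-Fluor fluorescence read for viability, then a luciferase luminescence read for Nrf2/ARE activity.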
* = called active by the depositor; u = inconclusive; x = not tested or not shown. Shown are actives, neighbours in structure and some others; about 3.7% of the full set was active somewhere. Unless noted, the call rests on the fitted dose curve; in most records, active means well fitted curve in the direction sought with a large enough effect; inconclusive means small, poorly fitted or top-dose-only effect, or another doubt; inactive means no such curve, though single readings can be large; an effect the other way counts as inactive or inconclusive.

mol | ClpP mod | p53 reactivation | miR-21 FLuc | Nrf2 ARE act | A549 tox | Nrf2 block
C[n+]1ccccc1/C=C1\Sc2ccccc2N1CCO | -4.4% | 1.6% | 11.2% | 4.2% | -19.8% | 16.4µM*
CC[n+]1ccc(/C=C2\Sc3ccccc3N2CCCS(=O)(=O)[O-])c2ccccc21 | x | -0.8% | -1.7% | 1.9% | -8.1% | -2.6%
Cc1ccc2c(c1)S/C(=C\c1cccc[n+]1C)N2CCO | 0.7% | u | 19.2% | 3.0% | -18.5% | 4.61µM*
CCCCNc1c(-c2ccc(SC3CCCCC3)cc2)nc2cnccn12 | 28.2µM* | 13.2% | x | -3.2% | u | 16.3%
CCC(C)Sc1ccc(-c2nc3cc(C)ccn3c2NC2CCCCC2)cc1 (stereo not given) | 4.6% | u | x | 0.6% | u | -23.9%
CCC(C)Sc1ccc(-c2nc3cnccn3c2NC2CCCCC2)cc1 (stereo not given) | 3.9% | -23.9% | x | -1.0% | -29.2% | 23.1µM*
CCCCNc1c(-c2ccc(OC)c(SC3CCCCC3)c2)nc2cnccn12 | -26.1% | -20.7% | x | -4.7% | -19.5% | u
COc1ccc(C2c3c(nc(C)[nH]c3=O)Oc3ccc4ccccc4c32)cc1OC (stereo not given) | x | x | x | x | 13.8% | -7.0%
CC(C)c1nc2sc3c(SCCN(C)C)ncnc3c2c2c1CCC2 | x | x | x | -0.2% | 5.3% | 0.0%
COC(=O)C1C(=O)c2c([nH]c(C(=O)OCCOC(C)C)c2C)CC1C (stereo not given) | 31.6µM* | 5.8% | -34.7% | 4.9% | -0.1% | x
CNS(=O)(=O)c1cccc(C(=O)OCC(=O)c2ccc3c(c2)OCCO3)c1 | x | 8.4% | x | -0.4% | -8.3% | 20.6µM*
COc1ccc(C(=O)Nc2sc3c(c2C#N)CCN(C(C)=O)C3)cc1 | x | 21.3% | 22.2% | -0.6% | -10.9% | u
CC(=O)N1CCc2c(sc(NC(=O)c3ccc([N+](=O)[O-])o3)c2C#N)C1 | -5.2% | 2.9% | -22.6% | u | 20.6µM* | 25.9µM*
COc1ccc(/C=C(\C#N)c2nc3ccccc3n2C)c(OC)c1 | -3.0% | x | -23.0% | 8.8% | u | -9.1%
C=CCn1c(=N)c(C(=O)NCCCOC)cc2c(=O)n3cc(C)ccc3nc21 | -19.0% | -0.4% | 0.9% | -0.6% | u | -0.8%
N=c1c(C(=O)NC2CCCCC2)cc2c(=O)n3ccccc3nc2n1Cc1cccnc1 | x | -5.4% | -5.2% | 0.4% | u | 1.9%
CC(C)OCCCn1c(=N)c(C(N)=S)cc2c(=O)n3ccccc3nc21 | 14.1µM* | -0.6% | -1.7% | 0.3% | u | 6.6%
N=c1c(C(=O)NCc2ccc(F)cc2)cc2c(=O)n3ccccc3nc2n1Cc1cccnc1 | 7.08µM* | 0.4% | 0.0% | 0.5% | 4.2% | -10.9%
COC(=O)c1cc2c(=O)n3ccccc3nc2n(Cc2cccnc2)c1=N | 6.31µM* | x | x | 0.2% | 17.0% | 12.8%
CCCn1c(=N)c(C(=O)NCc2cccnc2)cc2c(=O)n3ccccc3nc21 | 3.8% | x | -0.4% | 0.2% | u | 6.9%
C=CCn1c(=N)c(C(=O)NCCCOC)cc2c(=O)n3ccccc3nc21 | 6.31µM* | 9.4% | -2.9% | 0.0% | u | 9.6%
COc1ccc(NC(=O)CCN(c2ccc(OC)cc2)S(=O)(=O)c2ccc(C)c(C)c2)cc1 | -3.0% | x | x | 0.5% | -5.6% | u
CCCN1C(=O)C(O)(CC(=O)c2ccc(OC)c(OC)c2)c2ccccc21 (stereo not given) | -4.5% | x | -4.1% | 3.7% | -2.3% | -8.1%
COc1ccc(-n2c(=O)c3sc4ccccc4c3n(CC(=O)NC3CCCCC3)c2=O)cc1 | u | x | -1.8% | -1.0% | -16.2% | u
N=c1c(C(=O)NCc2ccc(F)cc2)cc2c(=O)n3ccccc3nc2n1CCCN1CCOCC1 | u | -3.0% | -0.4% | 0.6% | 9.1% | 11.6%

(list continues)
Letters – A = ClpP mod; B = p53 reactivation; C = miR-21 FLuc; D = Nrf2 ARE act; E = A549 tox; F = Nrf2 block
SMILES: N=c1c(C(=O)NCc2ccccc2)cc2c(=O)n3ccccc3nc2n1CCCN1CCOCC1
  A: 3.16µM* | B: -3.4% | C: -0.4% | D: 2.8% | E: -2.6% | F: 10.1%
SMILES: CCCCc1ccc(S(=O)(=O)NC2CCS(=O)(=O)C2)cc1 (stereo not given)
  A: -0.3% | B: -2.6% | C: 12.7% | D: 2.5% | E: -2.4% | F: 18.4µM*
SMILES: O=C(CSc1nc2c(oc3ccccc32)c(=O)n1-c1ccccc1)Nc1ccc(F)c(Cl)c1
  A: -2.3% | B: x | C: 2.9% | D: 4.4% | E: -7.6% | F: -11.0%
SMILES: OC[C@H]1O[C@@H](n2cnc3c(NCc4ccco4)ncnc32)[C@H](O)[C@@H]1O
  A: -0.6% | B: x | C: x | D: u | E: u | F: 8.2µM*
SMILES: C=CCNc1ncnc2c1ncn2C1OC(CO)C(O)C1O (stereo not given)
  A: -1.0% | B: 15.9% | C: -15.0% | D: -0.6% | E: -10.6% | F: u
SMILES: COc1ccc(C(O)(C2CCCCC2)C(CN2CCOCC2)c2ccccc2)cc1 (stereo not given)
  A: -0.8% | B: -2.2% | C: 20.9% | D: 0.2% | E: -16.2% | F: 20.6µM*
SMILES: CCN(CC)S(=O)(=O)c1cccc(C(=O)N/N=C(\C)c2ccc(O)cc2O)c1
  A: 1.0% | B: 1.3% | C: 14.9% | D: -0.6% | E: u | F: 10.3µM*
SMILES: COc1cccc(CSc2nc3ccccc3c3nc(CCn4c(C)nc5ccccc54)nn23)c1
  A: 0.0% | B: x | C: -0.4% | D: 3.0% | E: -12.1% | F: x
SMILES: Cc1ccc(NC(=O)Cn2c(=O)n(CCCCCC(=O)NCc3ccc(F)cc3)c(=O)c3sccc32)cc1C
  A: 0.6% | B: x | C: 1.4% | D: -0.1% | E: -0.8% | F: -11.5%
SMILES: Cc1nn(C)c(C)c1Nc1ccc(N2C(=O)C3CC=CCC3C2=O)cc1[N+](=O)[O-] (stereo not given)
  A: x | B: 4.3% | C: 6.9% | D: 4.8% | E: -17.4% | F: 20.6µM*
SMILES: Cc1nn(C)c(C)c1Nc1ccc(N2C(=O)C3C4C=CC(C4)C3C2=O)cc1[N+](=O)[O-] (stereo not given)
  A: x | B: -1.5% | C: -4.6% | D: 0.4% | E: 1.0% | F: -3.4%
SMILES: Cc1cc(C)cc(NC(=O)Cn2cc(C(=O)C3CCCCC3)c3ccccc32)c1
  A: -3.5% | B: x | C: -6.1% | D: -1.1% | E: -1.0% | F: u
SMILES: CN(C)c1nc(-c2ccccc2)c2cnn(Cc3ccccc3)c2n1
  A: 28.2µM* | B: -5.4% | C: 0.6% | D: 0.3% | E: 3.7% | F: -13.3%
SMILES: CCCCNC(=O)C(NC(=O)c1ccc(=O)[nH]c1)C(=O)c1ccccc1 (stereo not given)
  A: -1.3% | B: x | C: x | D: 0.2% | E: x | F: x
SMILES: COC(=O)c1c(C)[nH]c(C(=O)/C=C/c2ccc(C)cc2)c1C
  A: 8.3% | B: 5.0% | C: -8.3% | D: 2.7% | E: 8.2% | F: 2.59µM*
SMILES: CN(Cc1ccco1)C(=O)CSc1nn2c(=O)c(C(C)(C)C)nnc2s1
  A: -0.3% | B: 16.2% | C: x | D: u | E: -6.6% | F: 1.2%

An excerpt from above in order of SMILES length, rising:
Letters – A = ClpP mod; B = p53 reactivation; C = miR-21 FLuc; D = Nrf2 ARE act; E = A549 tox; F = Nrf2 block
SMILES: COc1cccc(CSc2nc3ccccc3c3nc(CCn4c(C)nc5ccccc54)nn23)c1
  A: 0.0% | B: x | C: -0.4% | D: 3.0% | E: -12.1% | F: x
SMILES: O=C(CSc1nc2c(oc3ccccc32)c(=O)n1-c1ccccc1)Nc1ccc(F)c(Cl)c1
  A: -2.3% | B: x | C: 2.9% | D: 4.4% | E: -7.6% | F: -11.0%
SMILES: Cc1nn(C)c(C)c1Nc1ccc(N2C(=O)C3C4C=CC(C4)C3C2=O)cc1[N+](=O)[O-] (stereo not given)
  A: x | B: -1.5% | C: -4.6% | D: 0.4% | E: 1.0% | F: -3.4%
SMILES: Cc1ccc(NC(=O)Cn2c(=O)n(CCCCCC(=O)NCc3ccc(F)cc3)c(=O)c3sccc32)cc1C
  A: 0.6% | B: x | C: 1.4% | D: -0.1% | E: -0.8% | F: -11.5%
